{
  "source": "patent US20050215634A1",
  "about": "(priority 2003, published 2005)",
  "data": [
    {"smiles": "CCCCCCCCCCCC(=O)OCC(O)CO", "note": "(centres unmarked) [GML, glycerol monolaurate]", "values": [
      {"measurement": "GML concentration up to which S. aureus MN8 grew", "setting": "S. aureus MN8", "value": "up to 100 μg/ml"},
      {"measurement": "GML concentration up to which N. gonorrhoeae grew", "setting": "N. gonorrhoeae", "value": "up to 50 μg/ml"}
    ]}
  ]
}
